Earlier results in patent publication US20110091574A1, “TREATMENT OF ADENOCARCINOMA EXPRESSING LKB1 WITH MTOR INHIBITOR IN COMBINATION WITH COX2 INHIBITOR” (Catholic Healthcare West, priority 2008, published 2011).

Test system: COX-2 and COX-1 enzymes
Conditions: cited from earlier work

In the case of `Cc1onc(-c2ccccc2)c1-c1ccc(S(N)(=O)=O)cc1` [valdecoxib], the “potency at inhibiting COX-2 relative to COX-1” value is given as “about 300 times”.
